The record followed here is PubChem BioAssay AID651725 (National Center for Advancing Translational Sciences (NCATS), 2012).

Protein sequences, listed by entry. Tags and fused reporters are not part of them.
UniProt Q15475, whole entry: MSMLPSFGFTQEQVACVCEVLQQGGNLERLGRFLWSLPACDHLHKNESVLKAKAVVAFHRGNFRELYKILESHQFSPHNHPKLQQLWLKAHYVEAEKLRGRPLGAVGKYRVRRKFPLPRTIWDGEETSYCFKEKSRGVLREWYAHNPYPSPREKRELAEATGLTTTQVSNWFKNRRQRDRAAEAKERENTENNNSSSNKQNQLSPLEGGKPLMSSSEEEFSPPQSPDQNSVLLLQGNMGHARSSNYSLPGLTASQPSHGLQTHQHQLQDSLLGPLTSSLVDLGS

The list shows a part of the results, in another mix than the full data. Active and inactive are the calls of the source. Rule as the data show it: active = activity change below about -65%; inconclusive = mostly about -30% to -63%; inactive = weaker than that.
% is scaled to controls: 0 for no effect and ±100 for the full control effect.

This assay concerns the target Homeobox protein SIX1 (Homo sapiens) + Protein phosphatase EYA2 (Homo sapiens) (UniProt Q15475+O00167). The experiment in a line: qHTS Assay for Inhibitors of the Six1/Eya2 Interaction. The note with it: AlphaScreen GST-Six1/His-Eya2 binding, biochemical; stronger effect = lower value. A digest of the protocol:
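AlphaScreen with GST-Six1 and His-Eya2 (5X mix: 250 nM and 500 nM), glutathione donor and nickel acceptor beads; buffer 50 mM Tris pH 8.0, 300 mM NaCl, 1 mM TCEP; 1 h at 37 C in the dark.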
(Quantitative high-throughput screening tests each substance at several concentrations.)
Consider `NC(=O)Nc1ccc([As](=O)(O)O)cc1`, for which the activity change is inactive: 3.09%.
Under `CC1=NCCc2c1[nH]c1ccccc21.O=[N+]([O-])c1cc([N+](=O)[O-])c(O)c([N+](=O)[O-])c1` stands inactive: -11.4%; under `CN(C(=O)Cc1ccc(Cl)c(Cl)c1)[C@H]1CC[C@@]2(CCCO2)C[C@@H]1N1CCCC1`, inactive: 5.92%.
The value for `O=[N+]([O-])c1ccc2c(c1)nnn2O` was inactive: -6.52%; that for `CN(C)C(=O)c1cc([N+](=O)[O-])cc2c1-c1c(cc([N+](=O)[O-])cc1[N+](=O)[O-])C2=O` was inactive: -28.4%; that for `CCOP1(=S)c2c(C)nn(CCC#N)c2N=C(c2ccc(F)cc2)N1C` (centres undefined) was inactive: -3.86%.
The value for `CN(C(=O)Cc1ccccc1)[C@@H]1CC[C@]2(CCCO2)C[C@H]1N1CCCC1` was inactive: 4.44%; that for `N#CCCN(C(=O)COC(=O)C(O)(c1ccccc1)c1ccccc1)c1ccc(F)cc1` was inactive: -11.6%.
`COc1ccccc1OP(C)(=O)Nc1cccc(Br)c1` (centres undefined): the activity change is inactive: -0.188%.
The value for `CS(=O)(=O)c1ccc(Cl)c(NC(=O)COC(=O)C(O)(c2ccccc2)c2ccccc2)c1` was inactive: -2.23%; that for `O=[As](O)(O)c1cccnc1` was inactive: 6.09%; that for `COc1cc(C(=O)NCC2(N3CCOCC3)CCCCC2)cc(Cl)c1OC(C)C` was inactive: -0.727%.
As to `O=C(OC1CN2CCC1CC2)c1ccc(Cl)cc1` (centres undefined), the activity change is inactive: -1.82%.
Take `CCOC(=O)c1ccc(NP(C)(=O)Oc2cc(C)cc(C)c2)cc1` (centres undefined): the activity change was inactive: 0.0457%.
Consider `Cc1cc(C)cc(OP(C)(=O)Nc2ccc(C)cc2C)c1` (centres undefined), for which the activity change is inactive: -0.792%.
As for `Cc1cccc(OCC(=O)OC2CN3CCC2CC3)c1` (centres undefined), the activity change was inactive: 15.2%.
Take `O=[As](O)(c1cccc(O)c1)c1cccc(O)c1`: the activity change was inactive: 4.05%.
On to `Cc1ccc(C)c(NP(C)(=O)Oc2ccccc2)c1` (centres undefined), for which the activity change is inactive: 5.61%.
The value for `CCCOP(=S)(Nc1nc(N)cc(=O)[nH]1)OCCC` was inactive: 2.57%.
As for `Nc1cccc2c([As](=O)(O)O)cccc12`, the activity change was inactive: 4.92%.
Under `Cc1cc(C)cc(OP(C)(=O)Nc2ccccn2)c1` (centres undefined) stands inactive: 3.8%; under `CP(=O)(Nc1cccc(Br)c1)Oc1ccccc1` (centres undefined), inactive: -4.17%.
Under `CCOP(=O)(Nc1cccc2ccccc12)OCC` stands inactive: 2.67%; under `CCOP(=O)(Nc1ccc(C)cn1)OCC`, inactive: -0.934%.
The value for `CN(CCCl)Cc1cc(Cl)c(NC2=NCCN2)c(Cl)c1` was inactive: 9.74%.
As to `O=[N+]([O-])c1cc([N+](=O)[O-])c(-n2nnc3ccccc32)c([N+](=O)[O-])c1`, the activity change is inactive: -4.51%.
Under `CCOP(=O)(NC(=NC(C)c1ccccc1)NC(C)c1ccccc1)OCC` (centres undefined) stands inactive: 2.88%.
Under `O=P1(Nc2ccccn2)COc2ccccc2OC1` stands inactive: 11.7%.
The value for `CCC1=CC2Cc3nc4ccc(Cl)cc4c(N)c3C(C1)C2` (centres undefined) was inactive: -10%.
For the compound `O=C(O)C(O)c1ccc(N(CCCl)CCCl)cc1.c1ccncc1` (centres undefined), the activity change is inactive: 0.777%.
The value for `CC(C)(C)C(=O)NC(Sc1ncccn1)C(Cl)(Cl)Cl` (centres undefined) was inactive: 2.38%; that for `O=P1(N(CCCl)CCCl)NCCC(C(F)(F)F)O1` (centres undefined) was inactive: -1.68%.
Under `Clc1n[nH]nc1-c1nn[nH][15n]1` stands inactive: -8.37%; under `CN(Cc1cccnc1)C(=O)COc1ccc(Cl)c(Cl)c1.O=[N+]([O-])c1cc([N+](=O)[O-])c(O)c([N+](=O)[O-])c1`, inactive: -12.1%.
Under `COc1ccccc1CNC(=O)COC(=O)C(O)(c1ccccc1)c1ccccc1` stands inactive: 1.74%; under `CC1(CBr)Cn2c(nc3ccccc3c2=O)S1` (centres undefined), inactive: 14.8%; under `Cc1nc2ccc3ccccc3c2s1.O=[N+]([O-])c1cc([N+](=O)[O-])c(O)c([N+](=O)[O-])c1`, inactive: -0.168%.
Regarding `Cc1ccc(S(=O)(=O)N(CCCN)CCCc2c(C)nc(N)[nH]c2=O)cc1.O=[N+]([O-])c1cc([N+](=O)[O-])c(O)c([N+](=O)[O-])c1`, the activity change was inactive: -6.39%.
In the case of `CC(C)/C=N\N=C(\N)N[N+](=O)[O-]`, the activity change is inactive: 0%.
On to `CN(C(=O)Cc1ccc(Cl)c(Cl)c1)[C@@H]1CCCC[C@H]1N1CCCC1`, for which the activity change is inactive: -8.07%.
The value for `COc1cc(C2NCCC3(OCCO3)C2(C)C)cc(OC)c1OC.O=[N+]([O-])c1cc([N+](=O)[O-])c(O)c([N+](=O)[O-])c1` (centres undefined) was inactive: -0.141%; that for `CC1CCC(C(C)C)C(OP(=O)(Nc2ccccn2)c2ccccc2)C1` (centres undefined) was inactive: 0.3%.
Under `Cc1ccc(C(=O)OC2CN3CCC2CC3)cc1` (centres undefined) stands inactive: -0.245%; under `Cc1nn(-c2ccccc2)c2c1P(=O)(N1CCOCC1)N(C)C(c1ccccc1)=N2` (centres undefined), inactive: 3.14%.
For `CCCC1OP(=O)(Nc2ccccc2)OCC1CC` (centres undefined), the activity change is inactive: 5.9%.
As for `O=C(/C=C/c1ccccc1)OC1CN2CCC1CC2` (centres undefined), the activity change is inactive: 24.4%.
Under `CN(C)C1(CNC(=O)c2ccc(S(C)(=O)=O)cc2)CCCCC1` stands inactive: 1.54%; under `CC1=C2N=C(C=C3N=C(C(C)=C4[N-][C@@](C)([C@@H]5N=C1[C@](C)(CCC(=O)NC[C@@H](C)OP(=O)([O-])O[C@H]1[C@@H](O)[C@@H](n6cnc7cc(C)c(C)cc76)O[C@@H]1CO)[C@H]5CC(N)=O)[C@@](C)(CC(N)=O)[C@@H]4CCC(N)=O)[C@@](C)(CC(N)=O)[C@@H]3CCC(N)=O)C(C)(C)[C@@H]2CCC(N)=O.[C-]#N.[Co+3]`, inactive: 1.86%; under `O=[N+]([O-])c1cc([N+](=O)[O-])c(Nc2nnnn2CCO)c([N+](=O)[O-])c1`, inactive: -23.6%.
For `COc1ccccc1OP(C)(=O)Nc1c(C)cccc1C` (centres undefined), the activity change was inactive: -2.01%.
With `CN1CCCCC1COC(=O)C1(O)c2ccccc2CCc2ccccc21` (centres undefined), the activity change is inactive: -5.78%.
As to `O=P1(Nc2ncccn2)COc2ccccc2OC1`, the activity change is inactive: -2.73%.
Under `Cc1ccc(OCC(=O)OC2CN3CCC2CC3)cc1` (centres undefined) stands inactive: -2.37%; under `O=[As](O)(c1cccs1)c1cccs1`, inactive: -0.747%; under `O=P1(Nc2ccc(Br)cn2)COc2ccccc2OC1`, inactive: 5.1%.
Turning to `NS(=O)(=O)c1cccc(NC(=O)COC(=O)C(O)(c2ccccc2)c2ccccc2)c1`, the activity change was inactive: 10.6%.
Under `CCCOc1ccc(NP(C)(=O)Oc2ccc(Cl)cc2)cc1` (centres undefined) stands inactive: 6.97%; under `Nc1cccc([As](=O)(O)c2ccccc2)c1`, inactive: 4.91%.
Under `CP(=O)(Nc1ccc(SC(F)(F)F)cc1)Oc1ccccc1` (centres undefined) stands inactive: 0.225%.
